Literature values in patent publication US20130090323A1, “HETEROCYCLIC COMPOUNDS AND THEIR USES” (Amgen Inc., priority 2010, published 2013).

Chains of the proteins cited; added tags and fusions are not shown. Lines headed by an entry give the natural chain unless they say otherwise; changes in a name come on top.
UniProt P42338: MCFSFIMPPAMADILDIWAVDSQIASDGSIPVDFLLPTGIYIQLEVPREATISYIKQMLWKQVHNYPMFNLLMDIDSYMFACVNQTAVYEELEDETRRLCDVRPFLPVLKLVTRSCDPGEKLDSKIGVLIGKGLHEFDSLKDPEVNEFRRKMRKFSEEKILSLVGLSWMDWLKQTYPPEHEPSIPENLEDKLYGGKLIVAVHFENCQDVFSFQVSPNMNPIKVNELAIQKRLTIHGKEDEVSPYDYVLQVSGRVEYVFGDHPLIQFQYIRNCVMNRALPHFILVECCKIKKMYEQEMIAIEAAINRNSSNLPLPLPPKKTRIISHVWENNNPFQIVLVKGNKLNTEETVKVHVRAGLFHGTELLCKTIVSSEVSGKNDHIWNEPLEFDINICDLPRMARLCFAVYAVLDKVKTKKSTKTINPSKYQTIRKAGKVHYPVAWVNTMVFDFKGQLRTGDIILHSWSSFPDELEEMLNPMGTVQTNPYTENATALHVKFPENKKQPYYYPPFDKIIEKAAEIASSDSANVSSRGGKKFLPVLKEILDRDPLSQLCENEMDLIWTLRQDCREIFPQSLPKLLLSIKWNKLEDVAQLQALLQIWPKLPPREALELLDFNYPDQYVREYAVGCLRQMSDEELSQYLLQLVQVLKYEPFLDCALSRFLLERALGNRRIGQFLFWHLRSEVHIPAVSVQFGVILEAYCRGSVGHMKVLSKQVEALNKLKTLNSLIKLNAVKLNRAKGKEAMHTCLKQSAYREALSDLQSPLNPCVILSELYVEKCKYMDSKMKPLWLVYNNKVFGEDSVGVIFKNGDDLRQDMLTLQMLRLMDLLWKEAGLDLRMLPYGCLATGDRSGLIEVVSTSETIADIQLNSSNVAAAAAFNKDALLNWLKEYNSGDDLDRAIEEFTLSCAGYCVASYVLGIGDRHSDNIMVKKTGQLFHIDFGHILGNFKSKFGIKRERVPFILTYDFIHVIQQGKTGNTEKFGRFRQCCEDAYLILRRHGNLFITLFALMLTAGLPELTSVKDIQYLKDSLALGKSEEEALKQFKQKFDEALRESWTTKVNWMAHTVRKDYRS

Molecular target: p110β (Homo sapiens, UniProt P42338)
Details: read-out: potency on beta

IC50: 7 nM
SMILES: Cc1cc(C(C)Nc2ccccc2)c2nc(N3CCOCC3)cc(=O)n2c1 (stereo not shown) [TGX-221]
